From US20080312157A1

Legend:
[1] = biological target: T1, GIP receptor (RIN), P43219; test: GIP RBA (RIN)
T1 chain: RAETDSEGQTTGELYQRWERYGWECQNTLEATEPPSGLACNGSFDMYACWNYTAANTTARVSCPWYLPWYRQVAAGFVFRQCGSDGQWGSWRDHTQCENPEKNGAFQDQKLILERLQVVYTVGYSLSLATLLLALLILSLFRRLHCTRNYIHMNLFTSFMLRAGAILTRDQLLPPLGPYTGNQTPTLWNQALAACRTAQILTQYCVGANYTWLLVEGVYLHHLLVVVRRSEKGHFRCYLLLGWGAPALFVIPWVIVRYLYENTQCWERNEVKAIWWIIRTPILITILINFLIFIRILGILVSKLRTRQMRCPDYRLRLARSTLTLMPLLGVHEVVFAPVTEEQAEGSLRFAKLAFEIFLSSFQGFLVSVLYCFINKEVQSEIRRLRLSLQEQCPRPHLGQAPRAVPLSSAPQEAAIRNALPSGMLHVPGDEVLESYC

[2] = biological target: T2, GIP receptor (Homo sapiens (Human)), P48546; test: cell-based or functional assay
T2 chain: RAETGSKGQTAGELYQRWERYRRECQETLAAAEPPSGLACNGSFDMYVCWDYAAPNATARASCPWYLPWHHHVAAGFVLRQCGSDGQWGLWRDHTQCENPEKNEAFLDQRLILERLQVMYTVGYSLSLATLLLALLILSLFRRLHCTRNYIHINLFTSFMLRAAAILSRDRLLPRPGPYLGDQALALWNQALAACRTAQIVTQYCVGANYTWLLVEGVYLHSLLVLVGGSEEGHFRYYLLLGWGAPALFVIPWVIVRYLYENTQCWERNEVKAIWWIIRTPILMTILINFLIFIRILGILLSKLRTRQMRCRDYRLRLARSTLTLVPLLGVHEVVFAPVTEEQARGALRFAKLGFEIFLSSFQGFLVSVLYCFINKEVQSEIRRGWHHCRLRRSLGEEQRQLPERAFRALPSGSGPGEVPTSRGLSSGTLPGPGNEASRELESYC

B1: 0601GIP4292 (peptide)
peptide: GYAEGTFISDYSIALDKIRQQEFVNWLLAQHPSSGAPPPS
modifications: not checked
IC50 [1]: 0.17 nM
Cyclase [2]: 3.46

B2: 0601GIP4293 (peptide)
peptide: GYAEGTFISDYSIAMDKIRQQDFVNWLLAQKPSSGAPPPS
modifications: not checked
IC50 [1]: 0.12 nM
